Measurements as given in paper PMC8640094, “Diaportones A–C: Three New Metabolites From Endophytic Fungus Diaporthe foeniculina BZM-15” (Frontiers in Chemistry, 2021).

Tested on: MCF-7 (breast cancer)
Assay: MTT cytotoxicity assay, MCF-7 cells
Type: cell-based
Settings: Homo sapiens, MCF7, 72 h, MCF-7, c 8.00 μM, three replicates; read-out: cell inhibition
Method: The cytotoxicity of all compounds against three human tumor cell lines, SF-268 (CNS cancer), MCF-7 (breast cancer), and HepG2 (hepatoma cancer), and normal cell line LX-2 was tested using the MTT assay. Adriamycin was used as a positive control. All cells were seeded into 96-well plates at 5 × 10^4 cells/ml and incubated at 37°C under a 5% CO2 atmosphere for 24 h. Then, the tested compounds were added. After 72 h, MTT solution was added into each well, which was further incubated. The cell-free supernatant was removed and formazan crystals were subsequently dissolved in DMSO. Optical density (OD) was recorded at 490 nm on a microplate reader to calculate the IC50 values.

COc1cccc2c1C(=O)c1c(O)c3c(c(O)c1C2=O)C[C@@](O)(C(=O)CO)C[C@@H]3O[C@H]1C[C@H](N)[C@H](O)[C@H](C)O1 [Adriamycin, reference compound]
inhibition at 8 µM: 78.2%
